Molecular target: Estrogen receptor (Homo sapiens, UniProt P03372)

Sequences of proteins named here, by UniProt entry; tags and fusion partners are left off.
UniProt P03372, whole entry: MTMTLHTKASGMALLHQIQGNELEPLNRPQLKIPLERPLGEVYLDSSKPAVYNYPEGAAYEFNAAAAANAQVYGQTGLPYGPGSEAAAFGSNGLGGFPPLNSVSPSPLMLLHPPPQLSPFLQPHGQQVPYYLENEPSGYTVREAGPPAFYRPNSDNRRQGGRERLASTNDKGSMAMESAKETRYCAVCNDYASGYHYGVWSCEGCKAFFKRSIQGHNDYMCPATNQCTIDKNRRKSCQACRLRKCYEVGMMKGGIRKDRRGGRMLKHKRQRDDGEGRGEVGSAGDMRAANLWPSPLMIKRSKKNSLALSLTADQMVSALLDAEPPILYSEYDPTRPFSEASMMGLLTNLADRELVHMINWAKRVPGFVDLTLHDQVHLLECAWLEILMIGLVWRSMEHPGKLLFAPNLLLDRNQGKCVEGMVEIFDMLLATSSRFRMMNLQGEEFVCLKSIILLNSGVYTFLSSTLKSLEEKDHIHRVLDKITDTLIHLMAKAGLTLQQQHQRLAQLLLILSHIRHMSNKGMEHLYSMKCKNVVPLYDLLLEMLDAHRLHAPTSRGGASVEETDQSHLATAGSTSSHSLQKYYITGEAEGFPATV

EC50 [µM]	Compound
> 3	Oc1cccc(CNc2nc(Cl)nc3scc(-c4ccccc4)c23)c1
> 10	CC(C)c1csc2nc(Cl)nc(NCc3ccc(O)cc3)c12
